As usually defined, the IC50 is the concentration that gives 50% inhibition.

Sequences of proteins named here, by UniProt entry; tags and fusion partners are left off. Residues count along the entry.
UniProt P07333, 20-972 limits assumed: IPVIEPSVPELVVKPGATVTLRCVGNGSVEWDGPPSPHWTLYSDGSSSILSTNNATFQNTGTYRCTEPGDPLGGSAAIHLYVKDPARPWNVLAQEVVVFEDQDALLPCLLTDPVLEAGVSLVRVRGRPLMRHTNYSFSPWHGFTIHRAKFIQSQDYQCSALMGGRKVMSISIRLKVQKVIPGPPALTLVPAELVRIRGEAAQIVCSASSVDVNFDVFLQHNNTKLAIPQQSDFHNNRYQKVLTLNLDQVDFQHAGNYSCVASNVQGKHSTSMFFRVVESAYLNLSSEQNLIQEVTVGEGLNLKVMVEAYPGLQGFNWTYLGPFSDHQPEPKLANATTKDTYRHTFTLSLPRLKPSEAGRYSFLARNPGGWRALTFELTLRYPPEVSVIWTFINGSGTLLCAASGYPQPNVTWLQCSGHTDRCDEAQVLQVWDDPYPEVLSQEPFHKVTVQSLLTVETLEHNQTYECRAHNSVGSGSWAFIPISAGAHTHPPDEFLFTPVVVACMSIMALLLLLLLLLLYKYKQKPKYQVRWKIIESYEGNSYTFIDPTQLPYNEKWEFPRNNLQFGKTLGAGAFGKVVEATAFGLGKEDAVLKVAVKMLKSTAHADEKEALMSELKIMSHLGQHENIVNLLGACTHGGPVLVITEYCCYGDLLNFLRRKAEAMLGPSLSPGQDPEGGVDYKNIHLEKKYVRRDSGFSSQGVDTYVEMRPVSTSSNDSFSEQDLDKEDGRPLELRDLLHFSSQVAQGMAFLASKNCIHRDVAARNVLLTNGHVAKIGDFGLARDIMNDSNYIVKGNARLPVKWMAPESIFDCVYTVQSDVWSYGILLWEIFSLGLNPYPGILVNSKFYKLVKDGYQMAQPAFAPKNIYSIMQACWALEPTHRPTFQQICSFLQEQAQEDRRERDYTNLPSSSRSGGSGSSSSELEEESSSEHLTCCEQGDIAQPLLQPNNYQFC
UniProt P10721, 26-976 limits assumed: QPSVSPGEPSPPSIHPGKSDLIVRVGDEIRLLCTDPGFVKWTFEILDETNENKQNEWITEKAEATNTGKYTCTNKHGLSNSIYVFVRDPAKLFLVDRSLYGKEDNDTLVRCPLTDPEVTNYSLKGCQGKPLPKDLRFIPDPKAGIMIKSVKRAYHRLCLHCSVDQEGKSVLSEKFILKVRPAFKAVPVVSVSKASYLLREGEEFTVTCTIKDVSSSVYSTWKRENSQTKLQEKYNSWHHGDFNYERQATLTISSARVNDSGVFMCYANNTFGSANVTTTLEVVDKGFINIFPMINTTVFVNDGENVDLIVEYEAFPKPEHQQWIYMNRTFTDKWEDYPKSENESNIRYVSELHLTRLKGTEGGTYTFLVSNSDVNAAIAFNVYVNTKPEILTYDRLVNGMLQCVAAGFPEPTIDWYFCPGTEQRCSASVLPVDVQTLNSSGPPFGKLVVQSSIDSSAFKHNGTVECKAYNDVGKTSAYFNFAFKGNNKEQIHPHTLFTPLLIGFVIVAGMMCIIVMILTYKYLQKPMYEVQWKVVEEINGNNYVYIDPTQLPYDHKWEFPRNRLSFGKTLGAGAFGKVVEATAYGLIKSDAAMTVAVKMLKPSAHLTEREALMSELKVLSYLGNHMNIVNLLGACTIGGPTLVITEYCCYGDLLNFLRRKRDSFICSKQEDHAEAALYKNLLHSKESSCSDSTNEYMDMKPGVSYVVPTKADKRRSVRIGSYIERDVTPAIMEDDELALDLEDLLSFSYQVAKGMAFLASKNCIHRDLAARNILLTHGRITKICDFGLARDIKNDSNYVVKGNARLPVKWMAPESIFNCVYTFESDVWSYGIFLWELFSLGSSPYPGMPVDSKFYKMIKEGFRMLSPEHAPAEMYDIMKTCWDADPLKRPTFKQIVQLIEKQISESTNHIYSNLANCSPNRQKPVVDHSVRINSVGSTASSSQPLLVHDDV
UniProt P36888, 27-993 limits assumed: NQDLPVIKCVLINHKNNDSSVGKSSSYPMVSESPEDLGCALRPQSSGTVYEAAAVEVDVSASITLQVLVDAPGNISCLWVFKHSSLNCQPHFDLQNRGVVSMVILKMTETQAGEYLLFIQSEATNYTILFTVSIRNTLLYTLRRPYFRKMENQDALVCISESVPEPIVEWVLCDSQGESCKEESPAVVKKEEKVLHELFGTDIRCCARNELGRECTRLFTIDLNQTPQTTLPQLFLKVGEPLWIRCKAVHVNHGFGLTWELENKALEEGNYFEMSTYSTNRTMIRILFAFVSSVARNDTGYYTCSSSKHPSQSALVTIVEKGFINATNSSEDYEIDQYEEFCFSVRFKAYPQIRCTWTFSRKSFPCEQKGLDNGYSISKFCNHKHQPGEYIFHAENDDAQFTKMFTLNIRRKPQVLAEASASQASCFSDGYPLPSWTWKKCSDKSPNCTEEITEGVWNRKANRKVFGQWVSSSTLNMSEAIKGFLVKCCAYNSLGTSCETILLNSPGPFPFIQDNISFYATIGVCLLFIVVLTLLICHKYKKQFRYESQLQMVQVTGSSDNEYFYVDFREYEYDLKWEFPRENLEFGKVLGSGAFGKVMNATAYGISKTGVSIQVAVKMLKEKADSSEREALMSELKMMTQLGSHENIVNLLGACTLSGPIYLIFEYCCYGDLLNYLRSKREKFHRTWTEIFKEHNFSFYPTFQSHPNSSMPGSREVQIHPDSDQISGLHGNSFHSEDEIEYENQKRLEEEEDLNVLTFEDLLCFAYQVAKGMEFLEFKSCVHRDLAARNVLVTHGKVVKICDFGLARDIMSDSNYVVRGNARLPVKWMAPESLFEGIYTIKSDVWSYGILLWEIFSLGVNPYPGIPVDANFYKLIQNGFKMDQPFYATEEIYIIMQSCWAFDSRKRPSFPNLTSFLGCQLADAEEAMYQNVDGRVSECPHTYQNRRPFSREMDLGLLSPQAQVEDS
UniProt P09619, 33-1106 limits assumed: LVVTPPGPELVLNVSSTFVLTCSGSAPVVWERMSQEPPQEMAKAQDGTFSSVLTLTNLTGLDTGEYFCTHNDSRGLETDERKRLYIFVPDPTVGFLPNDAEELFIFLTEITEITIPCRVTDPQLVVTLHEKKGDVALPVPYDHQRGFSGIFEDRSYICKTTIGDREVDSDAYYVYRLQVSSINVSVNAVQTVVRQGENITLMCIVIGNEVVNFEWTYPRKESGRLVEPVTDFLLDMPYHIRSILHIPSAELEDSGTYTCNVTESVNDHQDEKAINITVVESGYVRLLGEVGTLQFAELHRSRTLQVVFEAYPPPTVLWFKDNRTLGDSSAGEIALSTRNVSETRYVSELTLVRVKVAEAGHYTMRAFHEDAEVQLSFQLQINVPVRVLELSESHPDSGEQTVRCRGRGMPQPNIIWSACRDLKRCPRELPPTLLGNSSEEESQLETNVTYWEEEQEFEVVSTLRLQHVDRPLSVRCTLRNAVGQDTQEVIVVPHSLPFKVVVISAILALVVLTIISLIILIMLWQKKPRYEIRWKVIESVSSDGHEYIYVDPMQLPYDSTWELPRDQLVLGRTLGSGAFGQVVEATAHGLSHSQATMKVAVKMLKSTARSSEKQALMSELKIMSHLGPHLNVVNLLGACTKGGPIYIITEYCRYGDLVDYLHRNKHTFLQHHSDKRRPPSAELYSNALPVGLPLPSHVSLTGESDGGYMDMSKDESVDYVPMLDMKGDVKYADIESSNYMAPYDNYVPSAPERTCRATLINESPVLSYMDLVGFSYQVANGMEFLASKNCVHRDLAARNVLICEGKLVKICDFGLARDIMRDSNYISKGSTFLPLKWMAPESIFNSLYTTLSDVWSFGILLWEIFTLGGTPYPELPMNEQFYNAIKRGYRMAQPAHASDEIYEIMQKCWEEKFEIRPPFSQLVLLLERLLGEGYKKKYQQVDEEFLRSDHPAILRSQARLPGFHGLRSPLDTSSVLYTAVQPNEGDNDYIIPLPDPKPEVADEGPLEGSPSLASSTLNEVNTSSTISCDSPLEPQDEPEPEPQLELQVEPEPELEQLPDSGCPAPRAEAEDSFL

One assay has as its target CSF-1R kinase (Homo sapiens (Human), UniProt P07333). The experiment in a line: CSF-1R kinase assay (AlphaScreen). The conditions noted are these: read-out: CSF-1R IC50; class symbol. The class given is biochemical.
For the next assay, the target named is c-KIT kinase (Homo sapiens (Human), UniProt P10721). The experiment in a line: c-KIT kinase assay (radiometric). The conditions noted are these: read-out: c-KIT IC50; class symbol.
In a further assay the target is FLT3 kinase (Homo sapiens (Human), UniProt P36888). The experiment in a line: FLT3 kinase assay (radiometric). The conditions noted are these: read-out: FLT3 IC50; bound.
The target of another assay is PDGFRβ kinase (Homo sapiens (Human), UniProt P09619). The experiment in a line: PDGFRβ kinase assay (radiometric). In kind it is biochemical. The conditions noted are these: read-out: PDGFRβ IC50; bound. How it is done: Inhibition of PDGFRβ kinase activity by a test compound disclosed herein was estimated by radiometric assay. Standard assay conditions were 10 ng of recombinant PDGFRβ (SignalChem) with 2 μg of substrate Poly-(Glu 4:Tyr 1) (sigma) in the assay buffer in kinase reaction buffer (10 mM MOPS pH 7.0, 0.21 mM EDTA, 0.5% glycerol, 0.001% Brij-35, 0.01 2-mercaptoehtanol, 1 mg/ml BSA, 10 mM MgCl2, 10 mM MnCl2, 10 μM ATP, 0.1 μCi per well [^33P]-ATP), in the presence of test compound (diluted in final concentration of 4% DMSO) or DMSO control, with a final volume of 25 μl for 60 minutes at 30° C. The reaction was stopped by adding 5 μl of 3% phosphoric acid solution. Total reaction solution was then harvested onto a filter plate (UniFilter-96 GF/B, PerkinElmer), and washed 20 times for 5 min with dH2O. 30 μl of MicroScint™-20 Cocktail (PerkinElmer) was added to dried plate. The plate was sealed and counted using a TopCount scintillation detector (PerkinElmer). […] The IC50 values of quinoxaline compounds of this invention against PDGFRβ kinase were determined using the GraphPad Prism 5 software.
The IC50 values for selected quinoxaline compounds of this invention against CSF-1R, c-KIT, FLT3, and PDGFRβ are summarized in Table 3.

The test system of assay [1] is CSF-1-dependent M-NFS-60 mouse myeloid leukemia cell. The experiment in a line: M-NFS-60 cell proliferation assay (CellTiter-96). The conditions noted are these: read-out: M-NFS-60 IC50; Cytotoxicity, M-NFS-60 cells, 72 hours.
Assay [2] has as its system MV4-11 human acute myeloid leukemia cell with FLT3-ITD mutation. The experiment in a line: MV4-11 cell proliferation assay (CellTiter-96). The conditions noted are these: read-out: MV4-11 IC50; Cytotoxicity, MV4-11 cells, 72 hours.
Assay [3] relates to Kasumi-1 human acute myeloid leukemia cell with c-KIT N822K activating mutation. The experiment in a line: Kasumi-1 cell proliferation assay (CellTiter-96). The conditions noted are these: read-out: Kasumi-1 IC50; Cytotoxicity, Kasumi-1 cells, 72 hours.
Assay [4] has as its system THP-1 human acute monocytic leukemia cell harboring NRAS G12D mutation. The experiment in a line: THP-1 cell proliferation assay (counter screen, CellTiter-96). The conditions noted are these: read-out: THP-1 IC50; Cytotoxicity, THP-1 cells (counter screen), 72 hours. For orientation: The purpose of a counterscreen is to sort out artefacts and off-target activity.

For the compound `COc1ccc(COc2ccc(Oc3ccc4ncc(N(C)C)nc4c3C#N)cc2OC)cc1`, the 50% inhibitory concentration (IC50) at CSF-1R kinase is below 100 nM; on c-KIT kinase it was below 100 nM; on FLT3 kinase, above 1000 nM; on PDGFRβ kinase, above 1000 nM; in assay [1], below 300 nM; in assay [2], above 10 µM. The half-inhibitory concentration (IC50) in assay [3] was 300 to 1000 nM; in assay [4] it was above 10 µM.

These data come from patent publication US10689362B2, “Quinoxaline compounds as type III receptor tyrosine kinase inhibitors” (Development Center for Biotechnology, priority 2016, dated 2020).
